By UniProt entry, the sequences of proteins in these tests, tags left out.
ATP-dependent Clp protease proteolytic subunit (Bacillus subtilis (strain 168)), P80244, UniProt P80244, whole entry, looked up: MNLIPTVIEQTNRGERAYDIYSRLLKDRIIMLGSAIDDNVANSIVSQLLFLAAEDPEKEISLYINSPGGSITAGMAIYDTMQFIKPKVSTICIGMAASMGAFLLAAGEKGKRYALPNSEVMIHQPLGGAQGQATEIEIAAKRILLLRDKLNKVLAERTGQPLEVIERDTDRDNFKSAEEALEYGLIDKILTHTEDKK

# The full list was thinned out, with hits kept by preference.
# MBNL1-CUG inh – MBNL1-poly(CUG) RNA binding inhibition. TR-FRET MBNL1-His/biotin-(CUG)12 binding, 665/545 ratio. Potency, µM (doses to about 57.5 µM), for the others: top-dose activity change, negative = inhibition, hits mostly inhibitors. 0.036% of 280,000 active; active means well fitted inhibition curve with a large enough effect in the signal ratio, with a control signal flat, not every such curve was filed as active; inconclusive means small, poorly fitted or top-dose-only effect, or effect the other way, or a change in a side signal; inactive means no such curve, though single readings can be large or run the other way; the % refers to the signal ratio; further: potency means the concentration at half of the fitted maximal effect; on the % scale 0 is the no-effect control and ±100 the full control effect
#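 His-tagged MBNL1 binding to biotinylated (CUG)12 RNA was measured by TR-FRET using terbium anti-His antibody (0.055 ng/ul final) and streptavidin-XL665 (5 nM final). Compounds were titrated 92 nM to 58 uM; 60 min at room temperature.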
# Rango dissoc inh – inhibitors of RanGTP-induced Rango-importin beta complex dissociation; Biochemical FRET Rango-importin beta, RanGTP-induced dissociation; O95149+P62826; Potency, µM (series often up to 46.1 µM), inactives show top-dose activity change, negative = inhibition; 0.071% of 340,000 active; further: potency means the concentration at half of the fitted maximal effect; % of control where 0% means no effect; nearly all actives have a fitted effect of over 45% in size
#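 Rango (0.1 uM)–importin beta (0.25 uM) complex; RanGTP-RCC1 trigger; 45 min RT; CFP/YFP FRET read.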
# CBFb RUNX1 block – blocks binding between human CBF-beta and RUNX1 | Q01196+Q13951 | AlphaScreen CBFb-His/RUNX1-biotin binding, biochemical | Potency, µM (top dose mostly 59.8 µM), for inactives: top-dose activity, negative = inhibition, actives largely listed as inhibitors | 230,000 tested, under 10 active; active means well fitted curve in the direction sought with a large enough effect; inconclusive means small, poorly fitted or top-dose-only effect, or effect the other way, or another doubt; inactive means no such curve, though single readings can be large or run the other way; further: % of control where 0% means no effect
#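 CBFb-His/RUNX1-biotin, 30 nM each, preincubated 20 min RT; compound 15 min RT; Ni + streptavidin beads 50 ng each, 90 min RT; AlphaScreen read.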
# Rango complex inh – Rango-importin beta binding inhibition; Q14974; 0.031% of 340,000 active; Potency, µM (series often up to 92.2 µM), for the others: at the highest dose inhibition of complex formation; AID 540263; Rango CFP/YFP FRET sensor + importin beta, 45 min;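 further: potency means the concentration at half of the fitted maximal effect; 0% = DMSO wells and 100% = buffer wells lacking importin beta; nearly all actives have a fitted effect of over 15% in size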
#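 Inhibition scored from the CFP 486 nm/YFP 530 nm FRET ratio 45 min after adding 0.125 microM importin beta to 50 nM Rango biosensor preincubated 5 min with compound (room temperature, PBS with DTT, Tween-20, BSA). No-importin wells as positive control.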
# ClpP mod – qHTS Assay for Activators of ClpP; 1.9% of 340,000 active; purified B. subtilis ClpP, FRET peptide cleavage, 20 min; AID 651965, 2013; Potency, µM (series often up to 57.5 µM), inactives show top-dose activity change, negative = active; ATP-dependent Clp protease proteolytic subunit (Bacillus subtilis (strain 168)), P80244; active means well fitted falling curve with a large enough effect; inconclusive means small, poorly fitted or top-dose-only effect; inactive means no such curve, though single readings can be large or run the other way; further: potency means the concentration at half of the fitted maximal effect; the source files actives as falling curves though it sought activators and does not explain the sign; nearly all actives have a fitted effect of over 65% in size
#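 ClpP 10 microg/mL final, pH 8 Tris/KCl buffer with BSA, glycerol, Tween-20; compound pinned in; FRET-FV substrate; RT 20 min; Ex320/Em430; ΔFRET vs ADEP 5.8 microM, DMSO, no enzyme.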
# An asterisk follows results filed as active; ? = inconclusive; . = not tested or not shown. Unless noted, the call rests on the fitted dose curve.
(1) CCCCCCCCNc1ccccc1S(=O)(=O)NCc1ccccc1
(2) CCCCCCCCNS(=O)(=O)CCNCCc1ccccc1
(3) Cc1ccc(CSc2nc(-c3ccc(C(C)(C)C)cc3)nc3cc(=O)[nH]n23)cc1
(4) COc1cc(NC(=O)COC(=O)[C@@H]2CCCN2S(=O)(=O)c2ccc(Cl)cc2)cc(OC)c1OC
(5) COc1ccc2c(COC(=O)[C@@H]3CCCN3S(=O)(=O)c3ccc(Cl)cc3)cc(=O)oc2c1
(6) COc1ccc(N2Cc3cccc(C(=O)Nc4ccc(Cl)cc4)c3C2=O)cc1
assay / entry | 1 | 2 | 3 | 4 | 5 | 6
MBNL1-CUG inh | . | . | . | 10.8% | . | .
Rango complex inh | 0.3% | 73.1µM* | . | 0.1% | -4.1% | .
ClpP mod | 31.6µM* | 0.5% | 0.1% | -0.9% | 25.1µM* | -16.4%
Rango dissoc inh | 8.3% | 44.1% | . | -10.4% | -3.1% | .
CBFb RUNX1 block | . | . | . | -1.8% | . | .

(7) CCOC(=O)c1cnc2c(ccc3ccccc32)c1NCCO
(8) CCOC(=O)c1cnc2c(ccc3ccccc32)c1NCCN(C)C
(9) CN1CCN(CCC(=O)Nc2ccc3c(c2)OCO3)CC1
(10) CN(C)C(=O)Cn1c(SCC(=O)Nc2ccc3c(c2)OCO3)nc2ccccc21
(11) CN(C)C(=O)Cn1c(SCC(=O)NCc2ccc3c(c2)OCO3)nc2ccccc21
(12) O=C(CCN1CCCCCC1)Nc1ccc2c(c1)OCCO2
assay / entry | 7 | 8 | 9 | 10 | 11 | 12
MBNL1-CUG inh | 3.0% | -15.7% | -9.3% | 2.4% | -8.5% | -1.8%
Rango complex inh | -0.6% | -4.6% | -5.3% | 4.5% | 0.8% | 2.0%
ClpP mod | 28.2µM* | 4.2% | 0.0% | 15.8µM* | -1.5% | 14.1µM*
Rango dissoc inh | -3.1% | 5.5% | -6.3% | 4.5% | 2.3% | -5.6%
CBFb RUNX1 block | 18.9% | . | -1.8% | -1.5% | 10.7% | -1.2%

(13) Cc1nc(SCC(=O)Nc2ccc3c(c2)OCCO3)nc(C)c1C
(14) Cc1cc(C)nc(SCC(=O)Nc2ccc3c(c2)OCO3)n1
(15) COc1ccccc1CNC(=O)C(C)n1c(=O)cc(C(F)(F)F)c2c(C)nn(C)c21 (stereo unspecified)
(16) O=C(NCc1ccccc1Cl)c1cc2ccccc2o1
(17) CN(C)c1ccc(CNC(=O)C2CCN(S(=O)(=O)c3ccc4[nH]c(=O)ccc4c3)CC2)cc1
(18) CC(=O)c1cccc(NC(=O)C(OC(=O)/C=C/c2ccc3c(c2)OCO3)c2ccccc2)c1 (stereo unspecified)
assay / entry | 13 | 14 | 15 | 16 | 17 | 18
MBNL1-CUG inh | -1.3% | -6.9% | . | . | . | 13.3%
Rango complex inh | -3.3% | 0.3% | . | . | . | -5.0%
ClpP mod | 20µM* | -0.1% | -3.7% | -1.2% | -10.1% | 28.2µM*
Rango dissoc inh | 26.3% | 1.9% | . | . | . | -19.1%
CBFb RUNX1 block | 10.1% | . | . | . | . | -2.3%

# Not a retest: 2 of the compounds above.
(14) Cc1cc(C)nc(SCC(=O)Nc2ccc3c(c2)OCO3)n1
(15) COc1ccccc1CNC(=O)C(C)n1c(=O)cc(C(F)(F)F)c2c(C)nn(C)c21 (stereo unspecified)
assay / entry | 14 | 15
MBNL1-CUG inh | -6.9% | .
Rango complex inh | 0.3% | .
ClpP mod | -0.1% | -3.7%
Rango dissoc inh | 1.9% | .
CBFb RUNX1 block | . | .

# Going on with the list.
(19) CCCC[C@@H](C)/C=C(C)/C=C(\C)C(=O)NC1=C[C@@](O)(/C=C/C=C/C=C/C(=O)NC2=C(O)CCC2=O)[C@@H]2O[C@@H]2C1=O
(20) CC(C)CCNC(=O)C(c1cccnc1)N(CCc1ccccc1)C(=O)Cn1nnc2ccccc21 (stereo unspecified)
(21) Cc1ccc(CNC(=O)COC(=O)c2ccccc2OCC(=O)Nc2ccc(Br)cc2)cc1
(22) COc1cccc(NC2=Nc3cccc4cccc2c34)c1
(23) Nc1nc2c(nc(N3CCOCC3)n2COCCO)c(=O)[nH]1
(24) COc1ccc(NC(=O)c2ccc(NC(=O)CCS(=O)(=O)c3cccs3)cc2)cc1Cl
assay / entry | 19 | 20 | 21 | 22 | 23 | 24
MBNL1-CUG inh | . | -3.0% | . | 17.5% | . | .
Rango complex inh | . | 1.8% | . | 58µM* | . | .
ClpP mod | . | 17.8µM* | 2.6% | -2.8% | 1.4% | -1.0%
Rango dissoc inh | . | -0.6% | . | 2.0% | . | .
CBFb RUNX1 block | -26.8% | -8.9% | . | -28.2% | . | .

(25) CO/N=C/NC(=O)NOCc1ncc(C(F)(F)F)cc1Cl
(26) NC(=O)NOCc1ncc(C(F)(F)F)cc1Cl
(27) Cc1cccc(C)c1OC(=O)CSc1nnc(-c2ccc3c(c2)OCO3)o1
(28) Cc1ccc(OC(=O)CSc2nnc(-c3ccc4c(c3)OCO4)o2)cc1
(29) CCOc1ccc(C2C(=O)N(C3CCCCC3)CC(=O)N2CCc2ccccc2)cc1OC (stereo unspecified)
(30) CC(C)(C)c1ccc(S(=O)(=O)NCC(=O)Nc2ccc(-c3nc4ccccc4s3)cc2)cc1
assay / entry | 25 | 26 | 27 | 28 | 29 | 30
MBNL1-CUG inh | -2.7% | 0.6% | . | . | . | 2.8%
Rango complex inh | -4.2% | 4.4% | . | . | . | 0.4%
ClpP mod | -19.5% | 28.2µM* | 25.1µM* | 2.6% | -1.9% | 5.01µM*
Rango dissoc inh | -7.4% | 17.3% | . | . | . | 0.3%
CBFb RUNX1 block | 5.9% | 7.1% | . | . | . | 5.0%

(31) CC(NS(=O)(=O)c1cccc(Cl)c1)C(=O)Nc1ccc(-c2nc3ccccc3s2)cc1 (stereo unspecified)
(32) COCCNc1nnc(SC(C)C(=O)Nc2ccc(-c3nc4ccc(C)cc4s3)cc2)s1 (stereo unspecified)
(33) O=C(CNS(=O)(=O)c1cccc(Cl)c1)Nc1ccc(-c2nc3ccccc3s2)cc1
(34) Cc1ccc(C)c(S(=O)(=O)NC(C)C(=O)Nc2ccc(-c3nc4ccccc4s3)cc2)c1 (stereo unspecified)
(35) COc1cccc2cc(-c3nnc(Nc4ccccc4C)s3)c(=O)oc12
(36) CCc1cc(-c2oncc2-c2ccc(OC)cc2)c(O)cc1OC
assay / entry | 31 | 32 | 33 | 34 | 35 | 36
MBNL1-CUG inh | 6.4% | 145.4% | 73.1% | -10.9% | . | .
Rango complex inh | -1.3% | -5.5% | 1.5% | 6.0% | . | .
ClpP mod | 35.5µM* | 17.8µM* | -2.2% | 31.6µM* | 0.5% | .
Rango dissoc inh | 0.7% | -11.7% | -11.6% | -3.0% | . | .
CBFb RUNX1 block | 5.9% | -7.2% | 1.3% | -0.2% | . | 17.5%

(37) CCCCC/C=C\C\C=C/C=C/C=C/[C@@H](SCC(N)C(=O)NCC(=O)O)[C@@H](O)CCCC(=O)O (stereo partly specified)
(38) COc1ccc(N2CCN(C(=O)C(CC(C)C)NS(=O)(=O)c3ccc4nc(C)sc4c3)CC2)cc1 (stereo unspecified)
(39) COc1ccc(CNC(=O)c2cccc(C)c2[N+](=O)[O-])cc1
(40) Cc1cccc(C(=O)NCc2ccc(S(N)(=O)=O)cc2)c1[N+](=O)[O-]
(41) Cc1cccc(OC(C)C(=O)NCc2ccc(S(N)(=O)=O)cc2)c1 (stereo unspecified)
(42) c1ccc2c(c1)OCC(c1nnc3sc(-c4ccc5c(c4)OCO5)nn13)O2 (stereo unspecified)
assay / entry | 37 | 38 | 39 | 40 | 41 | 42
MBNL1-CUG inh | . | . | -9.0% | . | 3.9% | -9.8%
Rango complex inh | . | . | -0.2% | 0.7% | 2.5% | ?
ClpP mod | . | -5.3% | -1.5% | 28.2µM* | 3.16µM* | 28.2µM*
Rango dissoc inh | . | . | -8.9% | 12.8% | -8.7% | -16.6%
CBFb RUNX1 block | 3.1% | . | 1.3% | -15.8% | 4.0% | -0.1%

# Grouped by structure, the entries above containing a nitro group on carbon.
(39) COc1ccc(CNC(=O)c2cccc(C)c2[N+](=O)[O-])cc1
(40) Cc1cccc(C(=O)NCc2ccc(S(N)(=O)=O)cc2)c1[N+](=O)[O-]
assay / entry | 39 | 40
MBNL1-CUG inh | -9.0% | .
Rango complex inh | -0.2% | 0.7%
ClpP mod | -1.5% | 28.2µM*
Rango dissoc inh | -8.9% | 12.8%
CBFb RUNX1 block | 1.3% | -15.8%

# New compounds follow:
(43) Clc1ccccc1-c1nn2c(Cn3cnc4ccccc43)nnc2s1
(44) Fc1ccc(-c2nn3c(C4COc5ccccc5O4)nnc3s2)cc1 (stereo unspecified)
(45) c1ccc2c(c1)ncn2Cc1nnc2sc(-c3ccc4c(c3)OCO4)nn12
(46) Clc1ccccc1-c1nnc2sc(-c3ccc4c(c3)OCO4)nn12
(47) COc1ccc(Cl)cc1N(C)c1nc(N2CCN(S(=O)(=O)c3ccc(C)cc3)CC2)c2ccccc2n1
(48) Nc1cc(C(=O)OCC(=O)NC(c2ccccc2)c2ccccc2)ccc1Cl
(49) Nc1cc(C(=O)OCC(=O)NNC(=O)c2ccccc2)ccc1Cl
assay / entry | 43 | 44 | 45 | 46 | 47 | 48 | 49
MBNL1-CUG inh | -7.4% | -0.4% | 11.6% | 33.7% | . | 5.9% | .
Rango complex inh | -3.4% | 3.6% | -3.1% | 4.9% | . | -1.0% | -1.3%
ClpP mod | -0.6% | 4.9% | 28.2µM* | 31.6µM* | 4.3% | 25.1µM* | ?
Rango dissoc inh | 0.4% | 8.7% | -8.8% | -9.7% | . | -6.9% | 20.4%
CBFb RUNX1 block | -10.2% | 2.9% | -1.1% | -8.8% | . | -0.7% | .
